Assay results published in publication PMC6750840 (Journal of Medicinal Chemistry, 2019).

Protein sequences, listed by entry. Tags and fused reporters are not part of them. Lines headed by an entry give the natural chain unless they say otherwise; changes in a name come on top.
UniProt P35367, whole entry: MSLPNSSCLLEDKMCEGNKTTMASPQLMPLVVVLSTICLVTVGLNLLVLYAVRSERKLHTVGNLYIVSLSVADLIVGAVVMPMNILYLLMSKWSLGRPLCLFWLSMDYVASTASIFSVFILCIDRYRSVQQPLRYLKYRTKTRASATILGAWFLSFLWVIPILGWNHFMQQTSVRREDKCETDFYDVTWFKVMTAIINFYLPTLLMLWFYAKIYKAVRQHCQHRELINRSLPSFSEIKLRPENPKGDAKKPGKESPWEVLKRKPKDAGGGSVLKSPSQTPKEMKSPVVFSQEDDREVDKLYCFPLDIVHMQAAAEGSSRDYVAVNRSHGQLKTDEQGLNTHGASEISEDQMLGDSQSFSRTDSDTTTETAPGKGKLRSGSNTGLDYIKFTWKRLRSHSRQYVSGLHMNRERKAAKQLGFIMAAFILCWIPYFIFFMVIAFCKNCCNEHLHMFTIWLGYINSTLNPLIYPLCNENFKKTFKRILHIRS

Biological target: human H1R (Homo sapiens, UniProt P35367)
Type: binding
Settings: benzene of 12 substituted for cyclohexane

fold change in binding affinity relative to 12: < 2 fold
Compound: Clc1ccc2c(c1)CCc1cccnc1C2=C1CCN(CC2CCCCC2)CC1 [Compound 13, 8-Chloro-11-(1-(cyclohexylmethyl)piperidin-4-ylidene)-6,11-dihydro-5H-benzo[5,6]cyclohepta[1,2-b]pyridine]
